# Data reported in PubChem BioAssay AID623 (Vanderbilt High Throughput Screening Facility, 2007).
# Protein sequences, listed by entry. Tags and fused reporters are not part of them. Lines headed by an entry give the natural chain unless they say otherwise; changes in a name come on top.
# UniProt P62483: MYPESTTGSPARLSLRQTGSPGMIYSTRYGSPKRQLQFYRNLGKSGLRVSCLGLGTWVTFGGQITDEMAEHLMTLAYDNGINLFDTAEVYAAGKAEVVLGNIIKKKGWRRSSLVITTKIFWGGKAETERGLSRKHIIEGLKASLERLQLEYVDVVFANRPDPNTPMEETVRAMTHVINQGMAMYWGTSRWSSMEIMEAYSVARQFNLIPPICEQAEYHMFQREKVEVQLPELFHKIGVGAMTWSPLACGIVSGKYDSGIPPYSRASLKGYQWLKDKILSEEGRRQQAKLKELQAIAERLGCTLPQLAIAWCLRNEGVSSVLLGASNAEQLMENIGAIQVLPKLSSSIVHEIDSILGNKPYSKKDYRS
# The entries are a selection whose mix differs from that of the whole data set. Active and inactive are the calls of the source.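 How the source made its calls: active means NADPH fluorescence slope more negative than the mean of all samples by about 3 SD, 99.7% confidence; inactive means the rest.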
# Biological target: Voltage-gated potassium channel subunit beta-2 (Rattus norvegicus) (UniProt P62483)
# Experiment: enhancers of rat Kvbeta2 NADPH turnover – biochemical, NADPH fluorescence, primary screen (AID 623);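 further: fluorescence intensity change per second fitted from 20 to 320 s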
# Conditions: Recombinant KvBeta, NADPH fluorescence decrease slope, 10 min; at 10 µM; active compounds read low
row,SMILES,NADPH fluorescence slope
1,O=P(Nc1nccs1)(c1ccccc1)c1ccccc1,inactive: -2.2e-05
2,Cc1cccc(OCC(=O)OC2CN3CCC2CC3)c1 (configuration not stated),inactive: -0.000101
3,CCOP1(=S)c2c(C)nn(CCC#N)c2N=C(c2ccccc2F)N1C (configuration not stated),inactive: 1.2e-05
4,Cc1ccc(OCC(=O)OC2CN3CCC2CC3)cc1 (configuration not stated),inactive: -1.2e-05
5,Cc1nn(-c2ccccc2)c2c1P(=O)(N1CCOCC1)N(C)C(c1ccccc1)=N2 (configuration not stated),inactive: 1.6e-05
6,COP1(=S)c2c(C)nn(CCC#N)c2N=C(c2ccc(F)cc2)N1C (configuration not stated),inactive: -3e-05
7,O=C(COc1ccccc1)OC1CN2CCC1CC2 (configuration not stated),inactive: -4.7e-05
